Source: paper PMC11640758

Target: nanodisc (supramolecular protein assembly of SRP-A and 1,2-dimyristoyl-sn-glycero-3-phosphocholine, DMPC) (human)
Test: SPR

Substance: amyloid beta (Aβ) 1–42 (from UniProt P05067 672-713) (peptide)
- Kd: 1360 nM
